The record followed here is ChEMBL document CHEMBL3763124, “N-Benzylbenzamides: A Novel Merged Scaffold for Orally Available Dual Soluble Epoxide Hydrolase/Peroxisome Proliferator-Activated Receptor γ Modulators” (J Med Chem, 2016).

Chains of the proteins cited; added tags and fusions are not shown. Lines headed by an entry give the natural chain unless they say otherwise; changes in a name come on top.
UniProt P37231: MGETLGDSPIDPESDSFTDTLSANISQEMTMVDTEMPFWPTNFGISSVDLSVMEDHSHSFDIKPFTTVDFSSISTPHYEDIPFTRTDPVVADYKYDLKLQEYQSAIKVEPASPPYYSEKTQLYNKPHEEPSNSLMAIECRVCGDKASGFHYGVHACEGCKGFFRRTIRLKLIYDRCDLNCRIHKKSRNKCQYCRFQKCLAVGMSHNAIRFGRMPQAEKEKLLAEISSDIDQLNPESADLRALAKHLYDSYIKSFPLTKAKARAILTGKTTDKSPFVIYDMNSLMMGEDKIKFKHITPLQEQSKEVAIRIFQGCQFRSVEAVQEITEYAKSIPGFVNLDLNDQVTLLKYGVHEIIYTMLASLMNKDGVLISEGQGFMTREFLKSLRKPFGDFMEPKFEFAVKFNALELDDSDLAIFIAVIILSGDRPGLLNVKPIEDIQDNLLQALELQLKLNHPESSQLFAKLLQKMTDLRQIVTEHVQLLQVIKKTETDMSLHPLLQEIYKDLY

The target in series [1] is T1, Peroxisome proliferator-activated receptor gamma (Homo sapiens, UniProt P37231).
Series [2] addresses T1, Peroxisome proliferator-activated receptor gamma. Kind of series: Transactivation of human PPARgamma expressed in African green monkey COS7 cells at 10 uM incubated overnight by dual-glo luciferase reporter gene assay. The note with it: COS-7. The series is classed as cell-based.
Series [3] can be described thus: Apparent volume of distribution during terminal phase in RjOrl:Swiss (CD-1) mouse plasma at 30 mg/kg, po. The series is classed as ADME, organism-based. The following applies: read-out: Vz/F.
The target in series [4] is T2, Peroxisome proliferator-activated receptor alpha (Homo sapiens) (UniProt Q07869).
T2 sequence (whole entry): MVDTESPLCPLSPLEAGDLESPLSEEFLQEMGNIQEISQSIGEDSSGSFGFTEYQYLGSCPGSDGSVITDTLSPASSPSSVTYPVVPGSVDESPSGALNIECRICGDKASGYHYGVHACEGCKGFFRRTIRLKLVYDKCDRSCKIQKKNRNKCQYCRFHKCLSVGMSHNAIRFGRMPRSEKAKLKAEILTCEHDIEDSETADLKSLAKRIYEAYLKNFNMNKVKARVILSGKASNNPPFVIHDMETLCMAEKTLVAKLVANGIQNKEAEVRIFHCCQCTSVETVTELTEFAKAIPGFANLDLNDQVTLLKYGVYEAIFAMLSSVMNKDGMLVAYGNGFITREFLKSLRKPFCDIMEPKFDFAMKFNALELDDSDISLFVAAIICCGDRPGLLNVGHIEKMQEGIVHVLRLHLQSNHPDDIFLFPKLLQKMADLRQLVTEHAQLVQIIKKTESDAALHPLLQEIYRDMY
Kind of series: Transactivation of human PPARalpha expressed in African green monkey COS7 cells incubated overnight by dual-glo luciferase reporter assay relative to GW7647. The series is classed as cell-based. The note with it: COS-7.

For `CCC(Cc1ccc(C(=O)NCc2ccc(F)cc2C(F)(F)F)cc1)C(=O)O` (stereo unspecified), the response in series [1] was half-maximal at 0.6 µM (EC50).

In series [2], `O=C(NCc1ccccc1C(F)(F)F)c1ccc(C2CC2C(=O)O)cc1` (stereo unspecified) had an Activity of 24%.

`CCC(Cc1ccc(C(=O)NCc2ccccc2C(F)(F)F)cc1)C(=O)O` (stereo unspecified): in series [3], the Vd/F came to 8 L/kg.

In series [4], `CCC(Cc1ccc(C(=O)NCc2ccc(C(F)(F)F)cc2)cc1)C(=O)O` (stereo unspecified) registered an Emax of 89%. In series [1], it took 6.3 µM to reach a half-maximal effect (EC50).

Turning to `O=C(O)CCc1ccc(C(=O)NCc2ccccc2C(F)(F)F)cc1`, the Activity in series [2] stood at 38%.

In the case of `CCOC(=O)C(CC)Cc1ccc(C(=O)NCc2ccc(F)cc2C(F)(F)F)cc1` (stereo unspecified), the response in series [1] was half-maximal at 2.8 µM (EC50).

Consider `CCC(Cc1ccc(C(=O)NCc2ccc(Cl)cc2)cc1)C(=O)O` (stereo unspecified), for which, in series [1], the 50% effective concentration (EC50) (commonly the concentration needed to bring the measured effect to its halfway point) came to 4 µM.

As for `CCC(Cc1ccc(C(=O)NCc2ccccc2)cc1)C(=O)O` (stereo unspecified), in series [1], it took 13.5 µM to reach a half-maximal effect (EC50).

For the compound `CCC(Cc1ccc(C(=O)NCc2ccc(F)cc2)cc1)C(=O)O` (stereo unspecified), in series [2], the Activity was 23%.

In turn, `CCC(Cc1ccc(C(=O)NCc2ccccc2C)cc1)C(=O)O` (stereo unspecified) had an EC50 in series [1] of 4 µM.

As for `CCOC(=O)C(CC)Cc1ccc(C(=O)NCc2ccccc2C)cc1` (stereo unspecified), in series [2], the Activity turned out to be 15%.

On to `CCOC(=O)CCc1ccc(C(=O)NCc2ccccc2C(F)(F)F)cc1`, for which, in series [2], the Activity came out at 38%.

Turning to `CCOC(=O)C(CC)Cc1ccc(C(=O)NCc2ccc(OC)cc2C(F)(F)F)cc1` (stereo unspecified), a half-maximal effect in series [1] (EC50) was put at 2 µM.

`CCOC(=O)C(CC)Cc1ccc(C(=O)NCc2ccccc2Cl)cc1` (stereo unspecified) returned an Activity in series [2] of 14%.

Turning to `CCC(Cc1ccc(C(=O)NCc2ccc(OC(F)(F)F)cc2)cc1)C(=O)O` (stereo unspecified), the 50% effective concentration (EC50) in series [1] amounted to 2 µM.
